Experimental data reported in paper PMC12269682 (mAbs, 2025).

Molecular target: T1, human epidermal growth factor receptor 2 (Homo sapiens, endogenous on SKBR3 cells, UniProt P04626)
T1 construct: human epidermal growth factor receptor 2 (HER2), on the HER2-expressing breast cancer cell line SKBR3; also called HER2; HER-2; source: endogenous, on SKBR3 cells
Assay: flow cytometry on cells; antibody constructs on HER2-expressing SKBR3 cells, dose series; staining 20 min on ice, goat anti-human IgG FITC secondary antibody, MFI read
Conditions: one partner purified

- binding result: binds
B1: trastuzumab VH R50S+R59N (antibody, V domains shown)
VH: [omitted - about 120 residues]
VL: DIQMTQSPSSLSASVGDRVTITCRASQDVNTAVAWYQQKPGKAPKLLIYSASFLYSGVPSRFSGSRSGTDFTLTISSLQPEDFATYYCQQHYTTPPTFGQGTKVEIK
notes: as the heavy chain of m1 (trastuzumab, Fab part in PDB […]) with R50S and R59N in the VH; as the light chain of m1 (trastuzumab, in PDB […]); Whole antibody (used in ADCC assays)
